# Assay results taken from patent US20220401383A1 (SHINKEI THERAPEUTICS, INC., priority 2019, published 2022).
# Tested on: CBD metabolism in human liver microsomes
# Test: Example 1: inhibition of CBD metabolism in pooled human liver microsomes
structure (smiles),measurement,value
CC(=O)N1CCN(c2ccc(OCC3COC(Cn4ccnc4)(c4ccc(Cl)cc4Cl)O3)cc2)CC1 (stereo not shown) [Ketoconazole],Inhibition of CBD metabolism (in words),"inhibits CBD metabolism but is less potent than cobicistat, 6,7-dihydroxybergamottin and lansoprazole"
